# Ab-14 heavy chain CDR variants: yeast mating affinities

All variants were tested on one target, the spike HR2 peptide PDVDLGDISGINAS (SARS-CoV-2).

Ab-14 is the parent antibody, in scFv form: VH, then the linker GGGGSGGGGSGGGGS, then VL. The light chain is unchanged in all variants.
VH: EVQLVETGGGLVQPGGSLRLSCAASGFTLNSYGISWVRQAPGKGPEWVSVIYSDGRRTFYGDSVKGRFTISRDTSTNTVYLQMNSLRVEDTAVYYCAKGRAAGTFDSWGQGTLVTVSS
VL: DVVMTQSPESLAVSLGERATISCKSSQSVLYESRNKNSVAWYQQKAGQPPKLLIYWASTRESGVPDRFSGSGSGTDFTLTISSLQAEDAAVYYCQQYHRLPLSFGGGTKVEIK

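The parent was found by panning a naive human phage display library on the peptide. AAYL49 was designed without a model: most single CDR substitutions and a random sample of double and triple ones. The scFvs were displayed on barcoded MATa yeast, the peptide on MATalpha yeast. Mating (16 h, 30 °C) was followed by selection of diploids and sequencing of their barcodes. A regression on co-assayed BCL2-family reference pairs converts the normalised counts of each replicate to an apparent Kd. Mating was done three times.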

Each variant is given by its three heavy chain CDRs, as the data file delimits them; those of the parent are GFTLNSYGIS, VIYSDGRRTFYGDSVK, GRAAGTFDS.
Scale: log10 of Kd in nM, estimated from mating counts; low values are strong binders.
The mean shown is taken over the replicates in which the pair was detected.
"not detected" marks a missing value. The strain was present, yet no cells mated with the target were sequenced in any replicate, which points to weak or no binding.
Background: pairings of library AAYL49 with three empty control strains gave a value in 15% of cases (median 4.06, 5th percentile 2.83). Values in that range, when seen in few replicates, are hard to tell from nonspecific mating.
For reference, the parent read 0.65 as the reference entry and 4.11 (one replicate of three) as a member of this library.

mean log10 Kd (nM),detected,CDR-H1,CDR-H2,CDR-H3
4.19,3 of 3,GFTLNSYGMS,VIYSDGRRLFYGDSVF,GRAAGTFDS
5.53,2 of 3,GFTLNIYGIS,VIYSDGRRTFYGDSKW,GRAAGTFDS
5.12,1 of 3,GFTLNIYGIP,VIYSDGRRTFYGDSVK,GRAAGTMDS
4.78,2 of 3,GFTLNSYGIS,VIYSDGRRTFRGDSCK,GRAAQTFDS
3.18,1 of 3,GFTLNSYGIA,VEYSLGRRTFYGDSVK,GRAAGTFDS
not detected,0 of 3,GFTLNSSGIS,VIYSDGRRTFYGKSVK,GRHAGTFDS
not detected,0 of 3,GFTMNSYGIS,VIYSDGRRTFYQDSVK,PRAAGTFDS
3.40,1 of 3,GFTLNSYGIP,VIYSDGRRTFYGDSVK,GRAAGRDDS
6.51,1 of 3,GFTLNSYTIS,VIYSDGRRTFYGDSVK,GRAWGTRDS
4.68,1 of 3,GFTLNSYGIS,VIYSDGGRTFYGDSVK,GRAACTFDS
not detected,0 of 3,GFTLYSYGIS,HIYSDGRRTFYGDSVK,GRAAGTFDS
4.69,3 of 3,GFTLNSLGIS,VIYSDGRRTFLDDSVK,GRAAGTFDS
not detected,0 of 3,GFTLNSYGIS,VIYSDGRRTFYKCSVK,GRAAQTFDS
4.48,2 of 3,GFTLNSYGIS,VIYSVGRRTFYGDSVK,GRAAGQFDS
0.71,3 of 3,GFAGNSYGID,VIYSDGRRTFYGDSVK,GRAAGTFDS
not detected,0 of 3,GQTLNSYGIS,VIYSIGRRTFYGDSVK,GRAAGTMDS
not detected,0 of 3,MFHLNSNGIS,VIYSDGRRTFYGDSVK,GRAAGTFDS
3.30,3 of 3,GFTLWSYGIS,VIYSDGRRTFYGDQCK,GRAAGTFDS
not detected,0 of 3,GFTLNSYGIK,VDYSDGRRTFYGDSVK,DRAAGTFDS
not detected,0 of 3,GFTLNSYGIS,VIYSDARRTFSGDSVK,GRAAGTFDS
not detected,0 of 3,QFTLNSYGIS,VIYSDPRRTFYGDSVK,GRAAGTFIS
5.67,1 of 3,GFTLNSDGIS,VIRSDGRRTFYGDHVK,GRAAGTFDS
4.29,1 of 3,GFTLNSYSIS,VIGSDGRRTFYGDSVK,GRAAGTFDS
3.72,1 of 3,GFTLNSYGIS,VGYSDGRQTFIGDSVK,GRAAGTFDS
4.11,2 of 3,GFALNSYGIR,VIYSDGMRTFYGDSVK,GRAAGTFDS
4.52,1 of 3,GFTLNSYGIS,VIYSDGRRTFYPDSVK,GQAAGTGDS
not detected,0 of 3,GFTLNSYMIS,VIYSDGRRTPAGDSVK,GRAAGTFDS
not detected,0 of 3,GFTLNSYGIF,VIYSDGRRNFYGVSVK,GRAAGTFDS
not detected,0 of 3,GFTLNWYGIS,VIFSDGRRTFYGDSVK,GRAAGTFDS
not detected,0 of 3,GFTLNSYAIS,VIYSDGRRTFYGDSYK,GRAAGTFDS
not detected,0 of 3,GFTLNSYGWS,VIYSDPRRTFYGESVK,GRAAGTFDS
3.45,3 of 3,NFTLNSCGIS,VIYSDGRRTFYADSVK,GRAAGTFDS
3.69,2 of 3,GFTLNSYGIS,VIYNDGNRTFYGDSVK,GRAGGTFDS
3.02,3 of 3,GFTLNSYGIS,VMYSDGRRTFYGDSVW,GRAAGTFDS
3.69,1 of 3,GFTLNSYLIS,VIYSDGRRPFYGDSVK,GRAAGTEDS
2.57,3 of 3,GFTLPSYGIS,VIYSDGVRTFYGDSVK,GRAAGTFDS
not detected,0 of 3,GFTLNSYGIS,VIYSDGRRTFYGDSVK,GRAAWYFDS
not detected,0 of 3,GFTLNSYGIS,VAYSDGRRTFYGDSVK,GRAYGTGDS
not detected,0 of 3,GFTLVSYGIS,VIYSDGRRNFYGDSAK,GRAAGTFDS
4.44,3 of 3,GFTLNSYGKS,VIYSDGCRTFYGDSVK,GRAKGTFDS
5.58,1 of 3,GHTLNSYGIS,VIYSDGRRTFYGDSVK,GNAAGTFDS
4.12,1 of 3,GFTLNCYGIS,VIYHDGRRTFYGDSVK,GRAAGTFDS
1.79,3 of 3,GFHLNSYGIS,VIYSDGYRTFYGDSVK,SRAAGTFDS
not detected,0 of 3,GFTLNSYGIS,VINSIGRRTFYGDSVC,GRAAGTFDS
not detected,0 of 3,TFTMNSNGIS,VIYSDGRRTFYGDSVK,GRAAGTFDS
5.16,1 of 3,GFTLNSWGIS,VIYSDGRRDFYGWSVK,GRAAGTFDS

Source: Engelhart et al. 2022 (doi:10.1038/s41597-022-01779-4), MIT Lincoln Laboratory and A-Alpha Bio; data file from the FLAb repository.